pIC50: −log10 of the molar value.
Assays:
[1] = test system: HEK-293T (normal kidney epithelial)
[2] = test system: Bel-7404 (human liver carcinoma)

pIC50 [1] | pIC50 [2] | Substance
5.05 | 5.15 | 3β-Hydroxypregnenolone-20-(2′-diazanyl) pyridine-Copper (II) [Compound 12]
4.85 | 4.85 | 3β-hydroxyoestrone-17-(2′-diazanyl)pyridine-Copper(II) [Compound 11]

Source: PMC5664251, “Synthesis and Cytotoxic Evaluation of Steroidal Copper (Cu (II)) Complexes” (Bioinorganic Chemistry and Applications, 2017)
